Data as given in patent US9459246B2, “Induced intercellular communication” (Nodality, Inc., priority 2009, dated 2016).

System: PBMCs
Assay: SCNP of immunomodulator signaling nodes in PBMC subpopulations of 60 healthy donors (Example 16)
Assay type: cell-based, human
Settings: 50 ng/ml, 15 min
Procedure: Cryopreserved PBMC samples were thawed at 37° C. and resuspended in RPMI 1% FBS before staining with amine aqua viability dye (Invitrogen, Carlsbad, Calif.). Cells were resuspended in RPMI 10% FBS, aliquoted to 100,000 cells per well of 96-well plates, and rested for 2 h at 37° C. prior to 15 min 37° C. incubation with the following modulators: 1000 IU/ml IFNα (PBL, Piscataqay, N.J.); 250 ng/ml IFNγ, 50 ng/ml IL4, 50 ng/ml IL10, α-IgD 5 m/ml (BD, San Jose, Calif.); 50 ng/ml IL2, 50 ng/ml IL6, 50 ng/ml IL27, CD40L 0.5 μg/ml (R&D, Minneapolis, Minn.); R848 5 μg/ml (Invivogen, San Diego, Calif.); LPS 1 μg/ml, PMA 40 nM (Sigma Aldrich, St. Louis, Mo.). […]
Flow cytometry data was acquired using FACS DIVA software (BD, San Jose, Calif.) on two LSRII Flow Cytometers (BD, San Jose, Calif.). All flow cytometry data were analyzed with WinList (Verity House Software, Topsham, Me.). […]
The term “signaling node” can refer to a specific protein readout in the presence or absence of a specific modulator. For example, a response to IFNα stimulation can be measured using pStat1 as a readout. […] Each signaling node can be measured in each cell subpopulation. […] The Equivalent Number of Reference Fluorophores (ERFs), fluorescence measurements calibrated by rainbow calibration particles on each 96-well plate, serve as a basis for all metric calculations (6, 7).

In the case of IL2: cytokine used as modulator, the “pStat5 activation by cell type” value is reported as “led to pStat5 activation primarily in CD3-CD20-lymphocytes and T cells”.
